Values quoted from earlier work, collected in patent US20160073662A1, “PRESERVATIVE AND ADDITIVE FOR FOOD AND FEED” (priority 2014, published 2016).

Settings: rat, in vivo; cited from earlier work

calcium montmorillonite clay
major organs, serum biochemistry, micronutrient levels: no changes
